BindingDB's records for doi:10.1124/mol.64.6.1295 (Glaxosmithkline, 2003)

Sequences of proteins named here, by UniProt entry; tags and fusion partners are left off.
UniProt P31388, whole entry: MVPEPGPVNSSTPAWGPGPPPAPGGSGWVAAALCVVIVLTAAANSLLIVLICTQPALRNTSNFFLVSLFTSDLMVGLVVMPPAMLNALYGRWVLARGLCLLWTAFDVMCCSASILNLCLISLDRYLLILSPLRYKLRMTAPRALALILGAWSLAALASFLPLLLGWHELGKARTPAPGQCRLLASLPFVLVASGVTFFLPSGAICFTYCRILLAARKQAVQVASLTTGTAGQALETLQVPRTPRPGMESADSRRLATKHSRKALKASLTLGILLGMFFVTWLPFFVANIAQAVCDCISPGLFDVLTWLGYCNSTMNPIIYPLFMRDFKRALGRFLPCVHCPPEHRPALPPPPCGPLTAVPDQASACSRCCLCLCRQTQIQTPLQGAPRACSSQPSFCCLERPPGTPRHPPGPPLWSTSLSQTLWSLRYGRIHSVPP

Biological target: 5-hydroxytryptamine receptor 6 (Rattus norvegicus, UniProt P31388)

- Ki: 1.05 nM
Structure (SMILES): CSc1ccc2c(c1)C(N1CCN(C)CC1)Cc1ccccc1S2 (stereo unspecified) [methanesulfonic acid;1-methyl-4-(3-methylsulfanyl-5,6-dihydrobenzo[b][1]benzothiepin-5-yl)piperazine]
